# Data reported in PubChem BioAssay AID720508 (The Scripps Research Institute Molecular Screening Center, 2013).
# Amino acid sequences for entries named in this document (tags omitted).
# UniProt P02675, whole entry, looked up: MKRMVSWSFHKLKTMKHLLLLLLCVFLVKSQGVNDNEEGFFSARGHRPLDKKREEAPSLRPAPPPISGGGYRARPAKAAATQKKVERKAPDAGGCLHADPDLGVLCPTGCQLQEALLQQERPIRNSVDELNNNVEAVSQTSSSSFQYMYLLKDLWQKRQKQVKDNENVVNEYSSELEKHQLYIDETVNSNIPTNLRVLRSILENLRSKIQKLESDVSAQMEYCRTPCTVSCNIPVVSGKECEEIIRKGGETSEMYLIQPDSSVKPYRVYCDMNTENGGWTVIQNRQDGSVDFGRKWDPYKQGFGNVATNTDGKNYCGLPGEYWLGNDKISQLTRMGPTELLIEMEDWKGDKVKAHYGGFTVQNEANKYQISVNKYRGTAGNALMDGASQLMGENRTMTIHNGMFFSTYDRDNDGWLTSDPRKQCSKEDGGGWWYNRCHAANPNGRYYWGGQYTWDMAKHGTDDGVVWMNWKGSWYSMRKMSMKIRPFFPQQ
# The list shows a part of the results, in another mix than the full data. Active and inactive are the calls of the source.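 The calls were made as follows: active = inhibition above the mean of compounds falling within the control limits plus 3 SD of them (cut at about 14% in these data); inactive = the rest.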
# Biological target: Fibrinogen beta chain (Homo sapiens) (UniProt P02675)
# Assay: inhibitors of Tn7 peptide binding to fibrin DD(E), primary screen, biochemical, fluorescence polarization, human fibrin, Tn7 probe (AID 720508);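 also: 0% = plate median of compound wells and 100% = 10 µM Aha-Tn7 peptide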
# Details: FP displacement of FITC-Tn7 peptide from fibrin DD(E); at 8.3 µM; hits give high values; 0% = median of compound wells per plate
row,SMILES,inhibition
1,NC(=O)Nc1ccc([As](=O)(O)O)cc1,inactive: 11.8%
